Measurements reported in patent US12479800B2, “Phenylpropionamide compound and use thereof” (MEDSHINE DISCOVERY INC., priority 2020, dated 2025).

By UniProt entry, the sequences of proteins in these tests, tags left out.
UniProt P41145, whole entry: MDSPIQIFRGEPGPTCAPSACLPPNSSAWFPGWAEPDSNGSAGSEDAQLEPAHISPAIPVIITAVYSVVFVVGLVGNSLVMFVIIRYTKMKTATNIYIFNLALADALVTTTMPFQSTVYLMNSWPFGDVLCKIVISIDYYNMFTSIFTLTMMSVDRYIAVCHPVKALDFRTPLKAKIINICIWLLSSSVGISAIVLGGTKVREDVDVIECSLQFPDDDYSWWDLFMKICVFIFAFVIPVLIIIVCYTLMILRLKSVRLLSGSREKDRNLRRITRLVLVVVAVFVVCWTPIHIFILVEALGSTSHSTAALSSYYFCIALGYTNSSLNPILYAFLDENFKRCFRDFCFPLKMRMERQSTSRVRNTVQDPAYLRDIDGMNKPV

Biological target: Kappa receptor (Homo sapiens (Human), UniProt P41145)
Assay: cAMP test of Kappa receptor
Details: read-out: EC50 value of the compound to Kappa receptor; KOR cAMP cells
Method: Experimental Embodiment 1: cAMP Test of Kappa Receptor
Experimental buffer: 1*HBSS (+/+) (SIGMA #H1387)+20 mM HEPES (LONZA #17-737E)
Stimulation buffer (STB): 200 μM IBMX (SIGMA #I7018) and 3 μM NKH477 (SIGMA #N3290) experimental buffer
Experimental Methods and Steps
The compound powder was dissolved with DMSO (Amresco #0231), and the concentration of the compound solution was 10 mM. 1 μL of the test compound was taken, and 49 μL of DMSO was added thereto, and the mixture was diluted to 200 μM of solution.
A LDV 384-well plate was taken, and the compound solution diluted in the previous step was respectively added to wells A1 to H1; a pre-prepared 200 μM of U-50488 (Tocris #0495/25) was taken and added to well P1; 10.8 μL of DMSO was added to each well of A2 to A11, […], and P2 to P11, respectively, and the mixture was centrifuged at 1000 rpm for 30 seconds.
Continuous gradient dilutions of compounds were performed with bravo, and the first column of LDV plate prepared in the previous step was taken as the initial concentration column, and 5 μL was sucked into the next column each time and blown and mixed evenly. […]
Cell density was counted and adjusted on a cell counter to 1.5*10^6 cells/mL. […]
Experimental plates were read with Envision.

Compound: CNC(=O)NC1CCN(C(=O)[C@@H](CCCCN)NC(=O)[C@@H](CC2CC2)NC(=O)[C@@H](Cc2ccccc2)NC(=O)CNC[C@H](C)c2ccccc2)CC1
- EC50: 0.04 nM
